Values quoted from earlier work as cited in publication PMC9740255 (Cells, 2022).

Biological target: hNET
Set-up: method as in ref 32 (Tatsumi et al. 1997)
Conditions: footnote a: hNET in HEK293 cells, [3H]nisoxetine; ref 32 (Tatsumi et al. 1997); read-out: NET Ki; cited from earlier work

CC(NC(C)(C)C)C(=O)c1cccc(Cl)c1 (stereo not shown) [Bupropion]
Ki: 52 ± 1 µM
